Assay results taken from paper PMC5645071 (Journal of controlled release : official journal of the …, 2015).

Columns and labels:
[1] = tested on: H1650 cancer stem cell xenograft tumor; type: in vivo; details: 20 mg/kg oral gavage
[2] = tested on: H1650 cancer stem cell orthotopic lung tumor; type: in vivo; details: 20 mg/kg oral gavage

For 3, 3-Diindolylmethane-14 [DIM-14], the “weight loss or other signs of toxicity in mice” value [1] was “did not observe any weight loss or other signs of toxicity” and the “weight loss or other signs of toxicity in mice” value [2] was “did not observe any weight loss or other signs of toxicity”.
